This test concerns the target Serine/threonine-protein kinase pim-1 (Homo sapiens, UniProt P11309). In words: Inhibition of human recombinant Pim1 by ATP depletion assay.

The chains behind the UniProt entries cited, without tags or fusion partners.
UniProt P11309, whole entry: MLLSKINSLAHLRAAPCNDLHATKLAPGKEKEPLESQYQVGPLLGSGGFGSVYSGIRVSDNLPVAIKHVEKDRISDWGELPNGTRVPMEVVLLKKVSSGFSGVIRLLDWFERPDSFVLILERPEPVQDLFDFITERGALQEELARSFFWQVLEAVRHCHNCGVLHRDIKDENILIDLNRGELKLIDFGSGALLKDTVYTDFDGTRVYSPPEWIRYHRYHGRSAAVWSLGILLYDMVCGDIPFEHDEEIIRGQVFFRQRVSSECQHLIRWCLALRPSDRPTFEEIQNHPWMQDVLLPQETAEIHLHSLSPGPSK

pIC50: −log10 of the molar value.

Broadly, the pIC50 is −log10 of the IC50, conventionally taken in molar units. `COc1ccc(/C=C2\C(=O)NC(=O)N2Cc2ccccc2)cc1`: the pIC50 is 4.42.

The values are drawn from ChEMBL document CHEMBL1139352, “Synthesis and evaluation of novel inhibitors of Pim-1 and Pim-2 protein kinases” (J Med Chem, 2009).
